The values that follow come from patent publication US20240376128A1, “N-CYCLOPROPYLPYRIDO [4, 3-D] PYRIMIDIN-4-AMINE DERIVATIVES AND USES THEREOF” (Jacobio Pharmaceuticals Co., Ltd., priority 2021, published 2024).

Sequences of proteins named here, by UniProt entry; tags and fusion partners are left off. A change or cut given only in a name is not applied to a line headed by its entry.
UniProt P01116: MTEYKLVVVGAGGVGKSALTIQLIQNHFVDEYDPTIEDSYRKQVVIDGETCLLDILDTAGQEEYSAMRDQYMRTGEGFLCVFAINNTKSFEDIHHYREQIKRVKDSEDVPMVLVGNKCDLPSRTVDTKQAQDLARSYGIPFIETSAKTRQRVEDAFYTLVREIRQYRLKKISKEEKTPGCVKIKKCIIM

In the test the target is K-Ras G12D (Homo sapiens, UniProt P01116, G12D). As to the kind of experiment: SOS1 catalyzed nucleotide exchange assay (GDP form K-Ras), TR-FRET. Particulars: read-out: Biochemical assays, IC50, K-Ras G12D GDP.
For `C#Cc1c(F)ccc2cc(O)cc(-c3ncc4c(N(C)C5(C#N)CC5)nc(OC[C@@]56CCCN5C[C@H](F)C6)nc4c3F)c12` [Compound 59, 1-((7-(8-ethynyl-7-fluoro-3-hydroxy-naphthalen-1-yl)-8-fluoro-2-(((2R,7aS)-2-fluorotetrahydro-1H-pyrrolizin-7a(5H)-yl)methoxy)pyrido[4,3-d]pyrimidin-4-yl)(methyl)amino)cyclopropane-1-carbonitrile], the IC50 amounted to 62.4 nM. In the case of `C#Cc1c(F)ccc2cc(O)cc(-c3ncc4c(NC5CC5C)nc(OC[C@@]56CCCN5C[C@H](F)C6)nc4c3F)c12` (stereo partly drawn) [Compound 22, 5-ethynyl-6-fluoro-4-(8-fluoro-2-(((2R,7aS)-2-fluorotetrahydro-1H-pyrrolizin-7a(5H)-yl)methoxy)-4-((2-methylcyclopropyl)amino)pyrido[4,3-d]pyrimidin-7-yl)naphthalen-2-ol] it was 12.8 nM; in that of `C#Cc1c(F)ccc2cc(O)cc(-c3ncc4c(N(CCOC)C5CC5)nc(OC[C@@]56CCCN5C[C@H](F)C6)nc4c3F)c12` [Compound 36, 4-(4-(cyclopropyl(2-methoxyethyl)amino)-8-fluoro-2-(((2R,7aS)-2-fluorotetrahydro-1H-pyrrolizin-7a(5H)-yl)methoxy)pyrido [4,3-d]pyrimidin-7-yl)-5-ethynyl-6-fluoro naphthalen-2-ol 2,2,2-trifluoroacetic acid], 61.7 nM; in that of `C#Cc1c(F)ccc2cc(O)cc(-c3ncc4c(NC5(C)CC5)nc(OC[C@@]56CCCN5C[C@H](F)C6)nc4c3F)c12` [Compound 10, 5-ethynyl-6-fluoro-4-(8-fluoro-2-(((2R,7aS)-2-fluorotetrahydro-1H-pyrrolizin-7a(5H)-yl)methoxy)-4-((1-methylcyclopropyl)amino)pyrido[4,3-d]pyrimidin-7-yl)naphthalen-2-ol], 24.2 nM. `[2H]C([2H])([2H])N(c1nc(OC[C@@]23CCCN2C[C@H](F)C3)nc2c(F)c(-c3cc(OC(=O)NC)cc4ccc(F)c(C#C)c34)ncc12)C1CC1` [Compound 8, 4-(4-(cyclopropyl(methyl-d3)amino)-8-fluoro-2-(((2R,7aS)-2-fluorotetrahydro-1H-pyrrolizin-7a(5H)-yl)methoxy)pyrido[4,3-d]pyrimidin-7-yl)-5-ethynyl-6-fluoronaphthalen-2-yl methylcarbamate]: the IC50 worked out at 46.9 nM.

As to `C#Cc1c(F)ccc2cc(O)cc(-c3ncc4c(N(C)[C@@H]5C[C@@H]5F)nc(OC[C@@]56CCCN5C[C@H](F)C6)nc4c3F)c12` [Compound 13, 5-ethynyl-6-fluoro-4-(8-fluoro-4-(((1R,2S)-2-fluorocyclopropyl)(methyl)amino)-2-(((2R,7aS)-2-fluorotetrahydro-1H-pyrrolizin-7a(5H)-yl)methoxy)pyrido[4,3-d]pyrimidin-7-yl)naphthalen-2-ol], the IC50 was found to be 30.3 nM. Take `C#Cc1c(F)ccc2cc(O)cc(-c3ncc4c(NC5C6COCC65)nc(OC[C@@]56CCCN5C[C@H](F)C6)nc4c3F)c12` (stereo partly drawn) [Compound 53, 4-(4-((3-oxabicyclo[3.1.0]hexan-6-yl)amino)-8-fluoro-2-(((2R,7aS)-2-fluorotetrahydro-1H-pyrrolizin-7a(5H)-yl)methoxy)pyrido[4,3-d]pyrimidin-7-yl)-5-ethynyl-6-fluoronaphthalen-2-ol]: the IC50 is 17.1 nM.

Turning to `C#Cc1c(F)ccc2cc(O)cc(-c3ncc4c(NC5(CF)CC5)nc(OC[C@@]56CCCN5C[C@H](F)C6)nc4c3F)c12` [Compound 25, 5-ethynyl-6-fluoro-4-(8-fluoro-4-((1-(fluoromethyl)cyclopropyl)amino)-2-(((2R,7aS)-2-fluorotetrahydro-1H-pyrrolizin-7a(5H)-yl)methoxy)pyrido[4,3-d]pyrimidin-7-yl)naphthalen-2-ol], the IC50 is 8.59 nM. In the case of `C#Cc1c(F)ccc2cc(O)cc(-c3ncc4c(N(C)[C@H]5C[C@H]5F)nc(OC[C@@]56CCCN5C[C@H](F)C6)nc4c3F)c12` [Compound 12, 5-ethynyl-6-fluoro-4-(8-fluoro-4-(((1S,2R)-2-fluorocyclopropyl)(methyl)amino)-2-(((2R,7aS)-2-fluorotetrahydro-1H-pyrrolizin-7a(5H)-yl)methoxy)pyrido[4,3-d]pyrimidin-7-yl)naphthalen-2-ol 2,2,2-trifluoroacetic acid] it was 32.9 nM; in that of `C#Cc1c(F)ccc2cc(O)cc(-c3ncc4c(N(C)[C@@H]5C[C@H]5F)nc(OC[C@@]56CCCN5C[C@H](O)C6)nc4c3F)c12` (mixture of isomers) [Compound 9, (2R,7aS)-7a-(((7-(8-ethynyl-7-fluoro-3-hydroxynaphthalen-1-yl)-8-fluoro-4-((trans-2-fluorocyclopropyl)(methyl)amino)pyrido[4,3-d]pyrimidin-2-yl)oxy)methyl)hexahydro-1H-pyrrolizin-2-ol 2,2,2-trifluoroacetic acid], 2 nM; in that of `C#Cc1c(F)ccc2cc(O)cc(-c3ncc4c(N(C)[C@@H]5C[C@H]5OC)nc(OC[C@@]56CCCN5C[C@H](F)C6)nc4c3F)c12` [Compound 41, 5-ethynyl-6-fluoro-4-(8-fluoro-2-(((2R,7aS)-2-fluorotetrahydro-1H-pyrrolizin-7a(5H)-yl)methoxy)-4-((trans-2-methoxycyclo-propyl)(methyl)amino)pyrido[4,3-d]pyrimidin-7-yl)naphthalen-2-ol], 282 nM. For the compound `C#Cc1c(F)ccc2cc(O)cc(-c3ncc4c(N(CC(F)F)C5CC5)nc(OC[C@@]56CCCN5C[C@H](F)C6)nc4c3F)c12` [Compound 17, 4-(4-(cyclopropyl(2,2-difluoroethyl)amino)-8-fluoro-2-(((2R,7aS)-2-fluorotetrahydro-1H-pyrrolizin-7a(5H)-yl)methoxy)pyrido[4,3-d]pyrimidin-7-yl)-5-ethynyl-6-fluoronaphthalen-2-ol 2,2,2-trifluoroacetic acid], the half-inhibitory concentration (IC50) is 8.94 nM. Regarding `C#Cc1c(F)ccc2cc(O)cc(-c3ncc4c(N(CC(=O)OCC)C5CC5)nc(OC[C@@]56CCCN5C[C@H](F)C6)nc4c3F)c12` [Compound 38, Ethyl N-cyclopropyl-N-(7-(8-ethynyl-7-fluoro-3-hydroxynaphthalen-1-yl)-8-fluoro-2-(((2R, 7aS)-2-fluorotetrahydro-1H-pyrrolizin-7a(5H)-yl)methoxy)pyrido[4,3-d]pyrimidin-4-yl)glycinate 2,2,2-trifluoroacetic acid], the IC50 amounted to 222 nM. For `C#Cc1c(F)ccc2cc(O)cc(-c3ncc4c(N(CC5CC5)C5CC5)nc(OC[C@@]56CCCN5C[C@H](F)C6)nc4c3F)c12` [Compound 14, 4-(4-(cyclopropyl(cyclopropylmethyl)amino)-8-fluoro-2-(((2R,7aS)-2-fluorotetrahydro-1H-pyrrolizin-7a(5H)-yl)methoxy)pyrido[4,3-d]pyrimidin-7-yl)-5-ethynyl-6-fluoronaphthalen-2-ol] the value was 18 nM; for `C#Cc1c(F)ccc2cc(O)cc(-c3ncc4c(NC5(C(F)(F)F)CC5)nc(OC[C@@]56CCCN5C[C@H](F)C6)nc4c3F)c12` [Compound 57, 5-ethynyl-6-fluoro-4-(8-fluoro-2-(((2R,7aS)-2-fluorotetrahydro-1H-pyrrolizin-7a(5H)-yl)methoxy)-4-((1-(trifluoromethyl)cyclopropyl)amino)pyrido[4,3-d]pyrimidin-7-yl)naphthalen-2-ol], 157 nM. In the case of `C#Cc1c(F)ccc2cc(O)cc(-c3nc(C#N)c4c(N(C)C5CC5)nc(OC[C@@]56CCCN5C[C@H](F)C6)nc4c3F)c12` [Compound 35, 4-(cyclopropyl(methyl)amino)-7-(8-ethynyl-7-fluoro-3-hydroxynaphthalen-1-yl)-8-fluoro-2-(((2R,7aS)-2-fluorotetrahydro-1H-pyrrolizin-7a(5H)-yl)methoxy)pyrido[4,3-d] pyrimidine-5-carbonitrile] it was 380 nM; in that of `C#Cc1c(F)ccc2cc(O)cc(-c3ncc4c(N(CCF)C5CC5)nc(OC[C@@]56CCCN5C[C@H](F)C6)nc4c3F)c12` [Compound 37, 4-(4-(cyclopropyl(2-fluoroethyl)amino)-8-fluoro-2-(((2R,7aS)-2-fluorotetrahydro-1H-pyrrolizin-7a(5H)-yl)methoxy)pyrido [4,3-d]pyrimidin-7-yl)-5-ethynyl-6-fluoro-naphthalen-2-ol 2,2,2-trifluoroacetic acid], 77.7 nM; in that of `C#Cc1c(F)ccc2cc(O)cc(-c3ncc4c(N(C)C5CC56CC6)nc(OC[C@@]56CCCN5C[C@H](F)C6)nc4c3F)c12` (stereo partly drawn) [Compound 51, 5-ethynyl-6-fluoro-4-(8-fluoro-2-(((2R,7aS)-2-fluorotetrahydro-1H-pyrrolizin-7a(5H)-yl)methoxy)-4-(methyl(spiro[2.2]pentan-1-yl)amino)pyrido[4,3-d]pyrimidin-7-yl)naphthalen-2-ol], 61.7 nM.

Consider `C#Cc1c(F)ccc2cc(O)cc(-c3ncc4c(N(C5CC5)C5CC5)nc(OC[C@@]56CCCN5C[C@H](F)C6)nc4c3F)c12` [Compound 48, 4-(4-(dicyclopropylamino)-8-fluoro-2-(((2R, 7aS)-2-fluorotetrahydro-1H-pyrrolizin-7a(5H)-yl)methoxy)pyrido[4,3-d]pyrimidin-7-yl)-5-ethynyl-6-fluoronaphthalen-2-ol], for which the IC50 came to 134 nM. Turning to `C#Cc1c(F)ccc2cc(O)cc(-c3nc(OC)c4c(N(C)C5CC5)nc(OC[C@@]56CCCN5C[C@H](F)C6)nc4c3F)c12` [Compound 2, 4-(4-(cyclopropyl(methyl)amino)-8-fluoro-2-(((2R,7aS)-2-fluorotetrahydro-1H-pyrrolizin-7a(5H)-yl)methoxy)-5-methoxypyrido[4,3-d]pyrimidin-7-yl)-5-ethynyl-6-fluoronaphthalen-2-ol], the IC50 was 4.07 nM. In the case of `C#Cc1c(F)ccc2cc(O)cc(-c3ncc4c(N(C)C5CC5(F)F)nc(OC[C@@]56CCCN5C[C@H](F)C6)nc4c3F)c12` (stereo partly drawn) [Compound 11, 4-(4-((2,2-difluorocyclopropyl)(methyl)amino)-8-fluoro-2-(((2R,7aS)-2-fluorotetrahydro-1H-pyrrolizin-7a(5H)-yl)methoxy)pyrido[4,3-d]pyrimidin-7-yl)-5-ethynyl-6-fluoronaphthalen-2-ol 2,2,2-trifluoroacetic acid] it was 12.5 nM.
